Test results from article PMC5919655, “Practical spectrophotometric assay for the dapE-encoded N-succinyl-L,L-diaminopimelic acid desuccinylase, a potential antibiotic target” (PLoS ONE, 2018).

The chains behind the UniProt entries cited, without tags or fusion partners. Where a name states a change or a piece, a line headed by the entry shows the natural chain unless it says otherwise.
UniProt P44514: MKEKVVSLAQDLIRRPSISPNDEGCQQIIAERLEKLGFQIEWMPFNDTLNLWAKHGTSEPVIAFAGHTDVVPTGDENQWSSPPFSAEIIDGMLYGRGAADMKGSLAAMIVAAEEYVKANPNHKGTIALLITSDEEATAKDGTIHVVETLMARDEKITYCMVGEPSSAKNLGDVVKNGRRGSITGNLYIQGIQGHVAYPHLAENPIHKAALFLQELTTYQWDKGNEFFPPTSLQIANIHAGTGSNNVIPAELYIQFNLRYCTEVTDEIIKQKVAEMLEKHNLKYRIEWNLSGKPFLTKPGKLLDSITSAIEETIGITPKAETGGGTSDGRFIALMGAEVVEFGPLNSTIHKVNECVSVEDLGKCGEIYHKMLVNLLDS

Target: T1, succinyl-diaminopimelate desuccinylase (HiDapE) (Haemophilus influenzae, UniProt P44514)
T1 construct: gene dapE; recombinant HiDapE, His6-tag cleaved with TEV protease
Test: ninhydrin-based assay of purified HiDapE with N6-methyl-L,L-SDAP substrate, […] nm
Format: biochemical

`OB(O)c1ccccc1` [phenylboronic acid] was tested, and the IC50 was 316 µM.
